E-sel inducer: induces E-selectin expression in human endothelial cells; HUVEC E-selectin immunofluorescence imaging; normalized: neutral wells 0, TNF-alpha wells 100; activation, % at 7.58 µM; 260,000 tested, 0.37% active; P16581;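 active = mean E-selectin-positive cell signal at least 10% of the positive control, reached in at least 60% of replicates, without over 20% cell loss; inconclusive = no rule given, readout overlaps actives, possibly toxicity-flagged; inactive = the rest, including those meeting only one limit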
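System: HUVEC, human umbilical vein endothelial cells; quantity: 3,000 cells/well; buffer or medium: EGM-2 medium, gelatin-coated wells; dosing: single-point compound dose; detection: immunofluorescence imaging; evaluation: % PE-positive cells; benchmarks: TNF-alpha, DMSO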
SIRT5 inh: inhibitors of human sirtuin-5 desuccinylase. Purified SirT5, succinyl-peptide AMC, trypsin-coupled fluorescence. inhibition, % at 15 µM. 330,000 tested, 1.1% active. AID 652115; in the data active = inhibition above about 15%; inconclusive = no clear call, values can overlap the other calls
MLL AF4-AF9 inh: MLL-AF4/AF9 protein interaction inhibition; AlphaScreen, biotin-AF4 peptide binding to FLAG-AF9; inhibition, % at 10 µM; P42568; 350,000 tested, 0.47% active;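 active = every replicate reaching a set inhibition limit, whatever the replicate mean, cut at about 25% in these data; inconclusive = mean inhibition reaches that limit but some replicates miss it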;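 also: 0% = plate neutral control median and 100% = total signal loss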
RAD54 inh: RAD54 (human) branch migration inhibition; inhibition, % at 10.4 µM; AID 602329; Q92698; 360,000 tested, 0.14% active; RAD54 Holliday junction branch migration, FAM/BHQ fluorescence;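 active = mean normalized replicate activity at least 40 and at least half of replicates scoring 40 or more; inconclusive = only one of the two criteria met; inactive = mean below 40 and under half of replicates reaching 40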;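 also: 0% = median of neutral control wells and 100% = median of positive control wells; inhibitors cause a drop in the FAM fluorescence signal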
UUG fidelity: modulators of start codon recognition fidelity in yeast; S. cerevisiae UUG-firefly luciferase reporter, luminescence/redox ratio; activity score, % at 18.7 µM; hit rate 0.13% among 350,000; AID 602363;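 active = replicate mean at a twofold rise or more, about +100% in these data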;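 note: firefly luciferase made from a UUG start codon reports start codon fidelity; reporter light over untreated wells divided by growth signal over untreated wells; some hits fall short of that in this replicate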
RAD52 inh: RAD52 (human) annealing inhibition; P43351; 360,000 tested, 0.46% active; recombinant RAD52 DNA annealing, FRET fluorescence; AID 651710; inhibition, % at 18.7 µM;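 active = every replicate showing at least 50% inhibition; inconclusive = mean inhibition at least 50% but not in every replicate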
* = called active by the depositor. A selection: hits, their analogues and other compounds. The true share with any hit is near 1.8%.

Sample of the layout, 3 compounds:
COc1ccc(C#Cc2cccc(-c3nc(C(=O)N4CCN(C)CC4)cc4c3[C@@H](CCO)N(S(=O)C(C)(C)C)C4)c2)cc1OC (stereo partly specified) was read as E-sel inducer 0, SIRT5 inh 2, MLL AF4-AF9 inh 2 and RAD52 inh -14.
`CC=Cc1ccc2n(c1=O)C[C@@H]1[C@@H](CO)[C@H](C(=O)NCC(F)(F)F)N(CC)[C@H]21` (mixture of isomers) gave E-sel inducer 0, SIRT5 inh 8, MLL AF4-AF9 inh 1, RAD54 inh 15 and RAD52 inh -20.
C[C@H](CO)N1C[C@H](C)[C@H](CN(C)S(=O)(=O)c2cn(C)cn2)Oc2ncc(/C=C/c3ccccc3)cc2C1=O was read as E-sel inducer 1, SIRT5 inh -7, MLL AF4-AF9 inh 2, RAD54 inh 5, UUG fidelity 4 and RAD52 inh 4.

The list itself, from the start:
COc1ccc(C#Cc2cccc(-c3nc(C(=O)N4CCN(C)CC4)cc4c3[C@@H](CCO)N(S(=O)C(C)(C)C)C4)c2)cc1OC (stereo partly specified) was read as E-sel inducer 0, SIRT5 inh 2, MLL AF4-AF9 inh 2 and RAD52 inh -14.
`CC=Cc1ccc2n(c1=O)C[C@@H]1[C@@H](CO)[C@H](C(=O)NCC(F)(F)F)N(CC)[C@H]21` (mixture of isomers) gave E-sel inducer 0, SIRT5 inh 8, MLL AF4-AF9 inh 1, RAD54 inh 15 and RAD52 inh -20.
C[C@H](CO)N1C[C@H](C)[C@H](CN(C)S(=O)(=O)c2cn(C)cn2)Oc2ncc(/C=C/c3ccccc3)cc2C1=O was read as E-sel inducer 1, SIRT5 inh -7, MLL AF4-AF9 inh 2, RAD54 inh 5, UUG fidelity 4 and RAD52 inh 4.
`C[C@H](CO)N1C[C@H](C)[C@H](CN(C)Cc2ccc(C(=O)O)cc2)OCCCC[C@H](C)Oc2ccc(NC(=O)c3ccncc3)cc2C1=O` gave E-sel inducer 0, SIRT5 inh -4, MLL AF4-AF9 inh -2, RAD54 inh 0, UUG fidelity -10 and RAD52 inh 101*.
C[C@@H]1CCCCO[C@@H](CN(C)Cc2ccc(C(=O)O)cc2)[C@H](C)CN([C@H](C)CO)C(=O)c2cc(NC(=O)c3ccncc3)ccc2O1 was read as E-sel inducer 0, SIRT5 inh 1, MLL AF4-AF9 inh -1, RAD54 inh -6, UUG fidelity 1 and RAD52 inh 104*.
`C[C@H]1CCCCO[C@H](CN(C)C)[C@@H](C)CN([C@@H](C)CO)C(=O)c2cc(NC(=O)Nc3ccc(F)cc3)ccc2O1` gave E-sel inducer 1, SIRT5 inh -1, MLL AF4-AF9 inh 2, RAD54 inh 1, UUG fidelity 15 and RAD52 inh 30.
Screening C[C@@H]1CN([C@@H](C)CO)C(=O)c2cc(-c3ccc(C#N)cc3)cnc2O[C@@H]1CN(C)CC1CCOCC1 returned E-sel inducer 0, SIRT5 inh 38*, MLL AF4-AF9 inh -3, RAD54 inh 3, UUG fidelity -9 and RAD52 inh 8.
Screening C[C@H]1CN([C@@H](C)CO)C(=O)c2cc(-c3ccc(C#N)cc3)cnc2O[C@H]1CN(C)CC1CCOCC1 returned E-sel inducer 0, SIRT5 inh -9, MLL AF4-AF9 inh -3 and RAD52 inh -1.
For Cc1ccc(-c2cnc3c(c2)C(=O)N([C@@H](C)CO)C[C@@H](C)[C@@H](CN(C)CC2CC2)O3)cc1 the results were E-sel inducer 0, SIRT5 inh 16*, MLL AF4-AF9 inh 1 and RAD52 inh 9.
For CN1c2ccc(-c3cccc(C#N)c3)cc2[C@@H]2[C@@H](CCN2C(=O)C2CCCCC2)[C@@H]1CO the results were E-sel inducer 1, SIRT5 inh 13, MLL AF4-AF9 inh 9 and RAD52 inh 26.
C=CC(=O)N(CCC)C(c1ccccc1)c1ccccc1OC (stereo unspecified) was read as E-sel inducer 0, SIRT5 inh 21*, RAD54 inh -12, UUG fidelity -11 and RAD52 inh -16.
COc1ccccc1CN(C)C(=O)C(c1ccccc1)c1ccccc1 was read as E-sel inducer 0, SIRT5 inh -2, MLL AF4-AF9 inh -2, RAD54 inh -5, UUG fidelity -3 and RAD52 inh -36.
`CCN1/C(=C/c2ccc3ccccc3[n+]2CC)C=Cc2ccccc21` gave RAD54 inh 71* and UUG fidelity 6.
For COc1ccc(C(=O)N2CCN(S(=O)(=O)c3ccc(C)cc3C)CC2)cc1S(=O)(=O)N1CCOCC1 the results were E-sel inducer 0, SIRT5 inh -1, MLL AF4-AF9 inh 1, RAD54 inh 2, UUG fidelity 18 and RAD52 inh 0.
`COc1ccc(C(=O)N2CCN(S(=O)(=O)c3ccc(C)cc3)CC2)cc1S(=O)(=O)N1CCOCC1` gave E-sel inducer 1, SIRT5 inh 20*, MLL AF4-AF9 inh inconclusive, RAD54 inh 7, UUG fidelity 3 and RAD52 inh -13.
For Cc1ccc(S(=O)(=O)Nc2ccc3c(c2)C(=O)N([C@H](C)CO)C[C@H](C)[C@H](CN(C)S(=O)(=O)c2ccc(Cl)cc2)OCCCC[C@H](C)O3)cc1 the results were E-sel inducer 1, RAD54 inh 17 and UUG fidelity -11.
For Cc1ccc(S(=O)(=O)N(C)C[C@H]2OCCCC[C@H](C)Oc3ccc(NS(=O)(=O)c4ccc(Cl)cc4)cc3C(=O)N([C@H](C)CO)C[C@H]2C)cc1 the results were E-sel inducer 0, SIRT5 inh 26*, MLL AF4-AF9 inh -2, RAD54 inh 4, UUG fidelity -1 and RAD52 inh -14.
For Cc1ccc(S(=O)(=O)N(C)C[C@@H]2OCCCC[C@@H](C)Oc3ccc(NS(=O)(=O)c4ccc(Cl)cc4)cc3C(=O)N([C@@H](C)CO)C[C@H]2C)cc1 the results were E-sel inducer 0, SIRT5 inh 25*, MLL AF4-AF9 inh -3, RAD54 inh -8, UUG fidelity 9 and RAD52 inh 11.
Screening Cc1ccc(S(=O)(=O)N(C)C[C@@H]2OCCCC[C@@H](C)Oc3ccc(NS(=O)(=O)c4ccc(Cl)cc4)cc3C(=O)N([C@H](C)CO)C[C@H]2C)cc1 returned E-sel inducer 0, SIRT5 inh 23*, MLL AF4-AF9 inh -3, RAD54 inh -7, UUG fidelity -2 and RAD52 inh 43.
For Cc1ccc(S(=O)(=O)N(C)C[C@@H]2OCCCC[C@H](C)Oc3ccc(NS(=O)(=O)c4ccc(Cl)cc4)cc3C(=O)N([C@H](C)CO)C[C@@H]2C)cc1 the results were E-sel inducer 0, SIRT5 inh 19*, MLL AF4-AF9 inh -1, RAD54 inh 9, UUG fidelity 2 and RAD52 inh 3.
`CN1C(=O)c2cc(NC(=O)c3ccc(C(F)(F)F)cc3)ccc2OC[C@@H]2O[C@@H](CC(=O)NC3Cc4ccccc4C3)CC[C@H]21` gave E-sel inducer 1, SIRT5 inh 6, MLL AF4-AF9 inh 1, RAD54 inh -2 and RAD52 inh 10.
Screening CO[C@@H]1CN(C)C(=O)c2ccc(NC(=O)C3CCC3)cc2OC[C@@H](C)N(C(=O)NC(C)C)C[C@H]1C returned E-sel inducer 0, SIRT5 inh -7, MLL AF4-AF9 inh -2, RAD54 inh 2, UUG fidelity -1 and RAD52 inh 1.
Screening O=C(C[C@@H]1CC[C@H]2[C@@H](COC[C@@H](O)CN2S(=O)(=O)c2cccc(Cl)c2)O1)NCCCN1CCOCC1 returned E-sel inducer 0 and RAD54 inh 4.
